Experimental data reported in US11844794B2, “Pharmaceutical compositions” (ADEPTIO PHARMACEUTICALS LIMITED, priority 2017, dated 2023).

Sequences of proteins named here, by UniProt entry; tags and fusion partners are left off.
UniProt Q05940, whole entry: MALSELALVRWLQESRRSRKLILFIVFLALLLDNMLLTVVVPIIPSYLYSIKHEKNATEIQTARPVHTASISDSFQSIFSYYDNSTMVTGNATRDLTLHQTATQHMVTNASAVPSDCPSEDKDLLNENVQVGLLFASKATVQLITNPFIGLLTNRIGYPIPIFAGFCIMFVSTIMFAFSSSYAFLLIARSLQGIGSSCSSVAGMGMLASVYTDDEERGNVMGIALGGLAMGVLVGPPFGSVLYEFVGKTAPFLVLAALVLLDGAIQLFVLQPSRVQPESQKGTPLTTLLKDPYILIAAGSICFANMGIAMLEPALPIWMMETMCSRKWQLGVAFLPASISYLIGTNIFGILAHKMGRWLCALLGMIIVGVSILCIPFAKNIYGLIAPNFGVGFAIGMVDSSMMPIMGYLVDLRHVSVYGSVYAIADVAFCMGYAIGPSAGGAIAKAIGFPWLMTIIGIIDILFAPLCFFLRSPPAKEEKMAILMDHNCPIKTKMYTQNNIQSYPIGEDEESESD

Target: T1, VMAT2 (Homo sapiens, UniProt Q05940)
T1 construct: from tissue; host or cells: living human volunteers (in vivo PET scan)
Assay: % VMAT2 blocking by PET scan in human volunteers
Format: in vivo
Settings: average plasma levels of less than 15 ng/ml during the period of PET scanning
From the text: Complete blocking of the VMAT2 proteins is considered undesirable as this can lead to unwanted side effects, such as Parkinsonism. […] The levels of VMAT2 blocking can be determined by competitive binding studies using Positron Emission Tomography (PET). By co-administering a radioactive ligand with the compound of interest at various concentrations, the proportion of binding sites occupied can be determined (see for example, Matthews et al., “Positron emission tomography molecular imaging for drug development”, Br. J. Clin. Pharmacol., 73:2, 175-186).
(+)-α-Dihydrotetrabenazine in amounts was administered by oral dosing to five human volunteers. In four of the volunteers, blood sample were taken at 30, 60, 120 and 180 minutes after drug administration. Blood samples were not taken from the fifth volunteer. At 60 minutes after drug administration, PET scans were initiated and these were stopped at 120 minutes after drug administration.
The experiment was carried out at dosages of 7.5 mg, 15 mg and 22.5 mg.

`COc1cc2c(cc1OC)[C@H]1C[C@@H](O)[C@H](CC(C)C)CN1CC2` [(+)-α-dihydrotetrabenazine, (2R,3R,11bR)-3-isobutyl-9,10-dimethoxy-1,3,4,6,7,11b-hexahydro-2H-pyrido[2,1,a]isoquinolin-2-01] was tested. Which “% VMAT2 binding” value did it give?
The value was “at least 50%”.
